Literature values, collected in patent publication US20250154607A1, “ISOTHERMAL AMPLIFICATION OF PATHOGENS” (priority 2021, published 2025).

Settings: cited from earlier work

(2-Hydroxypropyl)-γ-cyclodextrin
water solubility: 450 mg/mL
